The values that follow are results of earlier work, collected in US10576309B2, “Method of reducing perspiration” (BEIERSDORF AG, priority 2015, dated 2020).

For the substance Silicic acid, for the setting “first dissociation constant”, the pKa1 was 9.51. In addition, the pKa2 (second dissociation constant) is on record as 11.74.
